US8969335B2, “Benzonitrile derivatives as kinase inhibitors” (MERCK PATENT GmbH, priority 2011, dated 2015)

Chains of the proteins cited; added tags and fusions are not shown. Lines headed by an entry give the natural chain unless they say otherwise; changes in a name come on top.
UniProt Q9UHD2: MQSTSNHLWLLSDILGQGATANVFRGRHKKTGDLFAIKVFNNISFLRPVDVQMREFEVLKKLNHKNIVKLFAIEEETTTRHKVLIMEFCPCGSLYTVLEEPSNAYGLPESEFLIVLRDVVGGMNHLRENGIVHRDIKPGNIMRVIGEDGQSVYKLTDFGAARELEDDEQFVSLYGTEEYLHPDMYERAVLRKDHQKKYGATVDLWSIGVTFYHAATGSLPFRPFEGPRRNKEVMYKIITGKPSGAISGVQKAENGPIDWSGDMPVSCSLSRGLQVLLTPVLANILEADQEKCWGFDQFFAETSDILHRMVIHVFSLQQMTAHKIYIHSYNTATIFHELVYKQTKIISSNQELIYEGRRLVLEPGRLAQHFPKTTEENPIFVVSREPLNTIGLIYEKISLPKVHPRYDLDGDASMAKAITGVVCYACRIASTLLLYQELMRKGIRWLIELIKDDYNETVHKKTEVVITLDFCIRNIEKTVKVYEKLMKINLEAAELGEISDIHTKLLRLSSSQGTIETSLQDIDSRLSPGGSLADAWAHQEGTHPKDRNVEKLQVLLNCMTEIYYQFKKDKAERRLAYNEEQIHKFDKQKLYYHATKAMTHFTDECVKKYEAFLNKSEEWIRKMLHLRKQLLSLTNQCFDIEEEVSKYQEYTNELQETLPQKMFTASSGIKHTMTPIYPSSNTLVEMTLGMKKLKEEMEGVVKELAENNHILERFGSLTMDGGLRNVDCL
UniProt Q14164: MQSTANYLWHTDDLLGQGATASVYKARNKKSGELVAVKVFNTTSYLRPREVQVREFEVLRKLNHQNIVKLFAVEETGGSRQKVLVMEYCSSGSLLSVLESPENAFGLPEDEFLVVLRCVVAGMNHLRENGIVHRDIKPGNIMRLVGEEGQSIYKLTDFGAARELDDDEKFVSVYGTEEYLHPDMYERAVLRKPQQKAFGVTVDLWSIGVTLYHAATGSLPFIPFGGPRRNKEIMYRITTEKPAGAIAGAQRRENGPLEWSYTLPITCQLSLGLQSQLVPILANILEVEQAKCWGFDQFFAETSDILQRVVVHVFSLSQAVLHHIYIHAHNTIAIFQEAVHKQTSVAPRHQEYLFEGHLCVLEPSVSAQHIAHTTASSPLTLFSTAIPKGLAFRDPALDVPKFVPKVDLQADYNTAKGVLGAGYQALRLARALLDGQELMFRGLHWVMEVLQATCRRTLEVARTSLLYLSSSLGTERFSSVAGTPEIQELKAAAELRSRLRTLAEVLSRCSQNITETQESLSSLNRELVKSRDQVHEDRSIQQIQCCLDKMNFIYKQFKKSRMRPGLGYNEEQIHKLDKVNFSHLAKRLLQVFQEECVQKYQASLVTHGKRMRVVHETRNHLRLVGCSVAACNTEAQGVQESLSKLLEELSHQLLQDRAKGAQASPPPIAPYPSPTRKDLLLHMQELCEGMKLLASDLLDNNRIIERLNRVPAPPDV

Tests used:
[1] = biological target: TANK binding kinase (TBK1) (Homo sapiens (Human), UniProt Q9UHD2); test: TBK1 enzyme assay (384-well flashplate kinase assay); assay type: biochemical; conditions: 0.6 nM TBK1, 10 μM ATP, 30° C., 120 min
Protocol: Test for the Inhibition of TBK1
(§1) The kinase assay is performed as 384-well flashplate assay (for example for Topcount measurement).
0.6 nM TANK binding kinase (TBK1), 800 nM biotinylated MELK-derived peptide (Biotin-Ah-Ah-[…]) and 10 μM ATP (spiked with 0.25 μCi of ^33P-ATP/well) are incubated at 30° C. for 120 min in a total volume of 50 μl (10 mM MOPS, 10 mM Mg acetate, 0.1 mM EGTA, 1 mM DTT, 0.02% of Brij35, 0.1% of BSA, pH 7.5) with or without test compound. The reaction is stopped with 25 μl of 200 mM EDTA. After 30 min at room temperature, the liquid is removed, and each well is washed three times with 100 μl of 0.9% sodium chloride solution. Non-specific reaction is measured in the presence of 100 nM staurosporine. The radioactivity is measured in a Topcount (PerkinElmer). The results (for example IC50 values) are calculated using program tools provided by the IT Department (for example AssayExplorer, Symyx).

IKKε = IKKε (Homo sapiens (Human), UniProt Q14164); test: IKKε kinase assay (384-well flashplate assay); assay type: biochemical; conditions: 1 nM IKKε, 10 μM ATP, 30° C., 2 hours; read-out: IKKε enzyme assay IC50
Protocol: Test for the Inhibition of IKKε
IKKε—Kinase Assay (IKKepsilon)
as §1
1 nM IKKε, 800 nM biotinylated IκBα(19-42) peptide (Biotin-C6-C6-[…]) and 10 μM ATP (spiked with 0.3 μCi of ^33P-ATP/well) are incubated at 30° C. for 2 hours in a total volume of 50 μl (10 mM MOPS, 10 mM Mg acetate, 0.1 mM EGTA, 1 mM dithiothreitol, 0.02% of Brij35, 0.1% of BSA, 0.1% of BioStab, pH 7.5) with or without test compound. The reaction is stopped using 25 μl of 200 mM EDTA. After 30 min at room temperature, the liquid is removed, and each well is washed three times with 100 μl of 0.9% sodium chloride solution. Non-specific reaction is determined in the presence of 3 μM MSC2119074 (BX-795). The radioactivity is measured using a Topcount (PerkinElmer). The results (for example IC50 values) are calculated using program tools provided by the IT Department (for example AssayExplorer, Symyx).

IC50 [1]: 6 nM
IC50 (IKKε): 6 nM
SMILES: N#Cc1cc(-c2ccnc(Nc3cn[nH]c3)n2)ccc1OC1CCOCC1 [Compound A34, 5-[2-(1H-Pyrazol-4-ylamino)pyrimidin-4-yl]-2-(tetrahydropyran-4-yloxy)benzonitrile]
